# According to PMC4132742, “Inhibition of RNA binding to hepatitis C virus RNA-dependent RNA polymerase: a new mechanism for antiviral intervention” (Nucleic Acids Research, 2014):
# Sequences of proteins named here, by UniProt entry; tags and fusion partners are left off. Residues count along the entry.
# UniProt O92972, 2420-2989, stated change not applied: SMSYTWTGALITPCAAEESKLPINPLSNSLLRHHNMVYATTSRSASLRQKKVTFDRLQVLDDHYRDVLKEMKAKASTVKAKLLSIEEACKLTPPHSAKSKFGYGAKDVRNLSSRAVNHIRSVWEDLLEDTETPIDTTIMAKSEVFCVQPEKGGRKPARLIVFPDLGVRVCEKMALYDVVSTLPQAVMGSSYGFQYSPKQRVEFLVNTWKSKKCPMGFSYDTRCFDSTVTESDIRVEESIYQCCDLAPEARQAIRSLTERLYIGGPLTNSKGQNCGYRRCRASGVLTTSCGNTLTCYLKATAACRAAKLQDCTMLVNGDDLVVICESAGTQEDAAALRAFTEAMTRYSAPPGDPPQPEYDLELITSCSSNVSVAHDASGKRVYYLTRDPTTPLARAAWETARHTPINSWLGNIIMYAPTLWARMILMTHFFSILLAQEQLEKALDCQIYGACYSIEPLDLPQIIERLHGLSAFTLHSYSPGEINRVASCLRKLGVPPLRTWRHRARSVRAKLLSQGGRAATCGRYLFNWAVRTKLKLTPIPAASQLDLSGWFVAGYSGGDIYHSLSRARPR
# What was measured:
# [1] = molecular target: HCV-NS5BΔ21 RdRp genotype 1b (strain J4) (Hepatitis C virus genotype 1b, UniProt O92972); conditions: HCV genotype 1b RdRp, data not shown
# in vitro = conditions: human
structure (smiles),measurement,setting,value
O=c1c(O)c(-c2ccc(O)c(O)c2)oc2cc(O)c(O)c(O)c12 [Quercetagetin],activity relative to silibinin,[1],19 times
same,selectivity ratio at 3 days,in vitro,32.9
